Test results: patent US7429578B2, “Tricyclic inhibitors of poly(ADP-ribose) polymerases” (Agouron Pharmaceuticals, Inc., priority 1999, dated 2008)

By UniProt entry, the sequences of proteins in these tests, tags left out.
UniProt P09874, whole entry: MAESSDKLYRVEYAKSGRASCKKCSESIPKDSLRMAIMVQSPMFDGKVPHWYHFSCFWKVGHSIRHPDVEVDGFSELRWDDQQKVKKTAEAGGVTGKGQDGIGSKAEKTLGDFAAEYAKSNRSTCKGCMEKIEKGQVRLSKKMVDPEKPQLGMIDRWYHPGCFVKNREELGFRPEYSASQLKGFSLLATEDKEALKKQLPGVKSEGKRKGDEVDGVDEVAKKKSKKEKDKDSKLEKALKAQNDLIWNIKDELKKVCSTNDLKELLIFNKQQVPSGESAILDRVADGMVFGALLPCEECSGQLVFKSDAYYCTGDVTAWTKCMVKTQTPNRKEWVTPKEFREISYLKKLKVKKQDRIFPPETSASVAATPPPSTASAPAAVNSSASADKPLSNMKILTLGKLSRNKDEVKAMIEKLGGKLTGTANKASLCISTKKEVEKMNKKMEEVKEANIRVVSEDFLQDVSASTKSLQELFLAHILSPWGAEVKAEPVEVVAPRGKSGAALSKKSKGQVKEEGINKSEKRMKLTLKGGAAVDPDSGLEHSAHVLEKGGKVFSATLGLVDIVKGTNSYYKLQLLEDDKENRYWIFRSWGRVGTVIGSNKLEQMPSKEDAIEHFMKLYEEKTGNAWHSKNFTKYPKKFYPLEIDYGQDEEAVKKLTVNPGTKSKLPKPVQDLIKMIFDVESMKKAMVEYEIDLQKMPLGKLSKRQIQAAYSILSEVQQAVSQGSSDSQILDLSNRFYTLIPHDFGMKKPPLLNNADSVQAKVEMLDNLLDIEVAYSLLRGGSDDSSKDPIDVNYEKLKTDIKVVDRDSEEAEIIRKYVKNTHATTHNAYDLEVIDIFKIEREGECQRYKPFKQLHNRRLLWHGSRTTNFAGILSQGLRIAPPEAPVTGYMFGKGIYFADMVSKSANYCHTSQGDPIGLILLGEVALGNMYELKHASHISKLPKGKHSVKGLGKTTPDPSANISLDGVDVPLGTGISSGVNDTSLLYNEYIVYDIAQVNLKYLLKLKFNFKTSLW

Target: purified PARP protein (Homo sapiens, UniProt P09874)
Assay: PARP enzyme inhibition assay
Format: biochemical
Conditions: read-out: Inhibition Constant Ki; [32P]NAD+ incorporation, 500 μM NAD+, 25° C.; two values in a cell = tested twice

Ki: 6.2 nM and 4.5 nM
Structure (SMILES): COc1ccc(-c2[nH]c3cccc4c3c2CCNC4=O)cc1

Where “and” joins values, the source holds several entries; their conditions need not be identical. Identical values can stand only once.
